Experimental data published in PubChem BioAssay AID624474 (Sanford-Burnham Center for Chemical Genomics, 2012).
Calls of active or inactive are those of the source.

The chains behind the UniProt entries cited, without tags or fusion partners. Where a name states a change or a piece, a line headed by the entry shows the natural chain unless it says otherwise.
UniProt P34707: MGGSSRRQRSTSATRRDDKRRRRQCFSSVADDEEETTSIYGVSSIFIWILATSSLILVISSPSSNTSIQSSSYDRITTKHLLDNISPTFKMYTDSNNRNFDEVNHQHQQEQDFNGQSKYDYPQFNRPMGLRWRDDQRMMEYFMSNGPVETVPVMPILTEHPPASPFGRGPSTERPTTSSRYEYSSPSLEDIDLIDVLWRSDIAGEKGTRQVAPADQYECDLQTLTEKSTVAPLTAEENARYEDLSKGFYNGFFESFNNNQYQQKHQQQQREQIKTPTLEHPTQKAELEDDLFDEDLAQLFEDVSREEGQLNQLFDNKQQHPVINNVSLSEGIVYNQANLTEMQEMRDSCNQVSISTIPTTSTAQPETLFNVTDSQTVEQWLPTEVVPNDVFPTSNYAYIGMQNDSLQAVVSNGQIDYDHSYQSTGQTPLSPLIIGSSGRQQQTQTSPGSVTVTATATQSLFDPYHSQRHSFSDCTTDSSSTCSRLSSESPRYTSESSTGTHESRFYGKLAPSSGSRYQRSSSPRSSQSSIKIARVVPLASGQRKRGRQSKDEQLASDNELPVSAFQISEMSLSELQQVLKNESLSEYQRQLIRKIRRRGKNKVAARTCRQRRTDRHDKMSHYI

Biological target: Protein skinhead-1 (Caenorhabditis elegans) (UniProt P34707)
Test: C. elegans SKN-1 blockade, concentration series – fluorescence ratio readout, dose response (AID 624474)
Settings: SKN-1 inhibitor fluorescence ratio assay

| Compound | IC50 |
| --- | --- |
| CC1=CC2OC3CC4OC(=O)C=CC=CC(C(C)O)OCC(O)C5(C)OC5C(=O)OCC2(CC1O)C4(C)C31CO1 (configuration not stated) | inactive: > 100 µM |
| CC(=O)OC1C(=O)OCC23CCC4(C)OC4C2OC2CC(OC(=O)C=CC=CC(=O)OCCC1C)C3(C)C21CO1 (configuration not stated) | inactive: > 100 µM |
